# The list shows a part of the results, in another mix than the full data. Activity calls are given as the source filed them.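 The calls were made as follows: active = compounds whose plate-normalised and pattern-corrected inhibition of the luciferase reporter signal at the single screening dose is 50% or more; inactive = the rest.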
# Test: inhibitors of TROY-driven NF-kB signaling, primary screen, Q293 LMP1-TROYcd cells, NF-kB luciferase, uHTS (AID 1347056)
# Conditions: Q293 LMP1-TROYcd NF-kB luciferase reporter, 4 h; at 10 µM; stronger effect = higher value
row,Structure (SMILES),inhibition
1,COc1ccccc1OP(C)(=O)Nc1cc(Cl)ccc1C (configuration not stated),inactive: 10.1%
2,COc1ccc(OP(C)(=O)Nc2cccc(F)c2)cc1 (configuration not stated),inactive: -8.89%
3,Cc1cc(C)cc(OP(C)(N)=O)c1 (configuration not stated),inactive: -11.5%
4,CCOC(=O)c1ccc(NP(C)(=O)Oc2ccccc2)cc1 (configuration not stated),inactive: -8.72%
5,COc1ccccc1OP(C)(=O)Nc1ccc(C)cc1 (configuration not stated),inactive: -16.8%
6,Cc1ccc(NP(C)(=O)Oc2ccccc2)c(C)c1 (configuration not stated),inactive: -12.7%
7,CC(C)(C)c1ccc(OP(C)(=O)Nc2ccc(SC(F)(F)F)cc2)cc1 (configuration not stated),inactive: 14.8%
8,Cc1cccc(C)c1OP(C)(N)=O (configuration not stated),inactive: 16%
9,O=[N+]([O-])c1ccc2c(c1)C=Nc1ccccc1O2,inactive: -1.54%
10,O=[N+]([O-])c1cc([N+](=O)[O-])c(Nc2cccnc2)c([N+](=O)[O-])c1,inactive: 15.3%
11,COc1ccccc1-c1ccccn1.O=[N+]([O-])c1cc([N+](=O)[O-])c(O)c([N+](=O)[O-])c1,inactive: 0.97%
12,CCN(CC)CCCOC(=O)C(O)(c1ccccc1)c1ccccc1,inactive: 11.6%
13,CP(=O)(Nc1ccccn1)Oc1ccc(Cl)cc1 (configuration not stated),inactive: -6.04%
14,CCOP(C)(=S)SCC(=O)NC(C)C(=O)O (configuration not stated),inactive: -24.9%
15,O=[N+]([O-])c1cc([N+](=O)[O-])c(O)c([N+](=O)[O-])c1.c1ccc(Oc2ccncc2)cc1,inactive: 13%
16,CCOC(=O)c1ccc(NP(C)(=O)Oc2ccc(OC)cc2)cc1 (configuration not stated),inactive: 8.64%
17,CCc1ccc(OP(C)(=O)N2CCN(c3ccc([N+](=O)[O-])cc3)CC2)cc1 (configuration not stated),inactive: 14%
18,CP(=O)(NC(=O)Nc1ccccc1)Oc1ccccc1 (configuration not stated),inactive: -2.19%
19,Cc1cc(C)cc(OP(C)(=O)Nc2ccc(SC(F)(F)F)cc2)c1 (configuration not stated),inactive: 4.06%
20,CP(=O)(Nc1ccc(SC(F)(F)F)cc1)Oc1ccc(Cl)cc1 (configuration not stated),inactive: 13.4%
21,Cc1ccc(Nc2c([N+](=O)[O-])cc([N+](=O)[O-])cc2[N+](=O)[O-])cc1,inactive: 36.2%
22,Cc1cccc(C)c1OP(C)(=O)Nc1ccc(SC(F)(F)F)cc1 (configuration not stated),inactive: 21.9%
23,CP(=O)(Oc1ccccc1)OC(c1ccccc1)C(F)(F)F (configuration not stated),inactive: 8.11%
24,COc1ccccc1OP(C)(=O)Nc1ccccc1 (configuration not stated),inactive: 5.06%
25,CP(=O)(Nc1ccccc1Br)Oc1ccccc1 (configuration not stated),inactive: 19%
26,CP(=S)(Nn1cnnc1)Oc1ccccc1 (configuration not stated),inactive: 2.02%
27,CP(=O)(Nc1ccc(SC(F)(F)F)cc1)Oc1ccccc1 (configuration not stated),inactive: 22.8%

# Reference: PubChem BioAssay AID1347056 (Sanford-Burnham Center for Chemical Genomics, 2019)
